Legend:
[1] = test system: HT-29 cells; test: Antiproliferative sulforhodamine B assay, 72 h, HT-29; conditions: normal (21% of oxygen)
[2] = Rat model of arterial thrombosis (electrical stimulation of carotid artery)
[3] = test system: Lewis Lung Carcinoma (LLC); test: Murine model of Lewis Lung Carcinoma (LLC), tumor volume; conditions: for anti-cancer activity in vivo: LLC model
[4] = test system: human cancer cell lines; test: Antiproliferative assay in normal condition, all cell lines (summary of Tables 3 and 4); conditions: 72 h
[5] = test system: MDA-MB-231 cells; test: Antiproliferative MTT assay, 72 h, with or without estradiol, MDA-MB-231; conditions: simultaneous incubation with estradiol
[6] = test system: HT-29 cells; test: Long-term colony formation (clonogenic) assay, HT-29; conditions: FIGS. 1A and 1B
[7] = test system: CaCo-2 cells; test: Cell cycle analysis, CaCo-2; conditions: FIG. 1C
[8] = test system: CaCo-2 cells; test: Caspase-3/7 activity assay, Caco-2; conditions: 48 h treatment, FIG. 1E/1F
[9] = test system: HT-29 cells; test: Caspase-3/7 activity assay, HT-29; conditions: 24 and 48 h of incubation, FIG. 1E/1F
[10] = test system: HT-29 cells; test: Cell cycle analysis, HT-29; conditions: FIG. 1C
[11] = test system: HT-29 cells; test: Cell death analysis, HT-29; conditions: FIG. 1D
[12] = test system: MCF-7 cells; test: Antiproliferative MTT assay, 72 h, with or without estradiol, MCF-7; conditions: after addition of estradiol

With Cisplatin the “IC50 HT-29 normal” value [1] was 2.82 ± 0.6 µg/mL.

With `CCCCc1ccc(S(=O)(=O)N2CC2C(=O)OC)cc1` (stereo not shown) the “anti-thrombotic effect / inhibition of thrombus formation in vivo” value (shortened to “anti-thrombotic effect / inhibition”) [2] was “anti-thrombotic effects”, the “dose dependence of effect on thrombus formation in vivo” value ([2]; FIG. 6) was “dose-dependent effects” and the “dose at which effect on thrombus formation in vivo was significant and pronounced” value ([2]; FIG. 6, dose as low as) was ≤ 0.03 µmol/kg. The “TTEST, day 10” value ([3]; C-3257 75 mg/kg vs control) was 0.36, the “TTEST, day 12” value ([3]; C-3257 75 mg/kg vs control) was 0.25 and the “TTEST, day 14” value ([3]; C-3257 75 mg/kg vs control) was 0.13. For the same compound, the “TTEST, day 16” value ([3]; C-3257 75 mg/kg vs control) was 0.04, the “TTEST, day 17” value ([3]; C-3257 75 mg/kg vs control) was 0.03 and the “anti-cancer activity in vivo” value [3] was “possess anti-cancer activity in vivo”.

With `C[C@@H]1O[C@@H](OC[C@H]2O[C@@H](Oc3c(-c4ccc(O)c(O)c4)oc4cc(O)cc(O)c4c3=O)[C@H](O)[C@@H](O)[C@@H]2O)[C@H](O)[C@H](O)[C@H]1O` the “anti-thrombotic effect / inhibition” value [2] was “inhibited thrombus formation in vivo”.

For `CCCCCc1ccc(S(=O)(=O)N2CC2C(=O)OC)cc1` (stereo not shown), the “anti-cancer activity in vivo” value [3] was “anti-cancer effects were also shown”.

In the case of `COC(=O)C1CN1S(=O)(=O)c1ccc(C)cc1` (stereo not shown), the “antiproliferative activity compared with reference LOC14” value [4] is reported as “comparable to reference LOC14”, the “antiproliferative activity towards all cell lines” value [4] is reported as “the most active towards all cell lines” and the “TTEST, day 10” value ([3]; C-3161 50 mg/kg vs control) is reported as 0.78. For the same compound, the “TTEST, day 12” value ([3]; C-3161 50 mg/kg vs control) was 0.06, the “TTEST, day 14” value ([3]; C-3161 50 mg/kg vs control) was 0.03 and the “TTEST, day 16” value ([3]; C-3161 50 mg/kg vs control) was 0.02. The “TTEST, day 17” value ([3]; C-3161 50 mg/kg vs control) was 0.01 and the “anti-cancer activity in vivo” value [3] was “possess anti-cancer activity in vivo”.

With `O=c1c(O[C@@H]2O[C@H](CO)[C@@H](O)[C@H](O)[C@H]2O)c(-c2ccc(O)c(O)c2)oc2cc(O)cc(O)c12` the “anti-thrombotic effect / inhibition” value [2] was “less effective”.

With `CCCCCCc1ccc(S(=O)(=O)N2CC2C(=O)OC)cc1` (stereo not shown) the “change of antiproliferative activity with estradiol, MDA-MB-231” value [5] was “slight decrease of antiproliferative activity”.

In the case of `COC(=O)C1CN1S(=O)(=O)c1ccc2cc(C)ccc2c1` (stereo not shown), the “anti-cancer activity in vivo” value [3] is reported as “anti-cancer effects were also shown”.

In the case of `CCCCCCc1ccc(S(=O)(=O)N2CC2C(N)=O)cc1` (stereo not shown), the “change of antiproliferative activity with estradiol, MDA-MB-231” value [5] is reported as “slight decrease of antiproliferative activity”.

For `COC(=O)C1CN1S(=O)(=O)c1ccccc1` (stereo not shown), the “inhibition of long-term colonies formation, HT-29 vs CaCo-2” value [6] was “much potent towards HT-29 than CaCo-2 cell line”, the “percentage of CaCo-2 cells in S cell cycle phase” value [7] was “increased the percentage of CaCo-2 cells in S cell cycle phase” and the “caspase 3/7 activity, Caco-2” value [8] was “significantly increase caspase 3/7 activity”. The “caspase 3/7 activity, HT-29” value [9] was “significantly increase caspase 3/7 activity”, the “HT-29 cells in G0/G1” value [10] was “decreased HT-29 cells in G0/G1” and the “HT-29 cells in G2/M phase” value [10] was “increased in G2/M phase”. For the same compound, the “percentage of death HT-29 cells” value [11] was “increased significantly the percentage of death HT-29 cells”, the “antiproliferative activity compared with reference LOC14” value [4] was “comparable to reference LOC14” and the “antiproliferative activity towards all cell lines” value [4] was “the most active towards all cell lines”.

With `COC(=O)C1CN1S(=O)(=O)c1cccc2c(N(C)C)cccc12` (stereo not shown) the “change of sensitivity with estradiol, MCF-7” value [12] was “slight decrease in sensitivity after addition of estradiol”.
